Measured values published in patent publication US5648233A, “Modified tumor cytotoxic factor (TCF) and DNA encoding such” (Snow Brand Milk Products Co., Ltd., priority 1992, dated 1997).

Columns and labels:
[1] = rat, in vivo
Meth A sarcoma = assay: Tumor cytotoxic activity (MTT); type: cell-based; conditions: Meth A cells, 5 days, serial dilution from 50 ng/mL, FIG. 9
Experimental: Tumor cytotoxic activities of TCF, TCF-3 and TCF-13 were measured. Meth A sarcoma was used as a target cell line. The cells were suspended in RPMI medium (GIBCO Co.) supplemented with 10% FCS at a final cell density of 2×10^4 cells per mL. Fifty microliters of the cell suspension was inoculated into each well in 96-well flat-bottomed microtiter plates. The purified TCF, TCF-3 and TCF-13 were serially diluted with RPMI medium from the concentration of 50 ng/mL, and the 50 μL of each diluted sample was added to each test well. After incubation at 37° C. for 5 days, MTT was added at a final concentration of 0.5 mg/ml and the plates were incubated at 37° C. Four hours later, 100 μL of the solution containing 10% SDS and […] was added to each well and left overnight at room temperature. Next day, the absorbance at 620 nm was measured as a parameter of the viable cell numbers in each well.

B1: TCF-13: modified TCF which lacks oligosaccharide chains 1 and 3 (protein)
chain: MWVTKLLPALLLQHVLLHLLLLPIAIPYAEGQRKRRNTIHEFKKSAKTTLIKIDPALKIKTKKVNTADQCANRCTRNKGLPFTCKAFVFDKARKQCLWFPFNSMSSGVKKEFGHEFDLYENKDYIRNCIIGKGRSYKGTVSITKSGIKCQPWSSMIPHEHSYRGKDLQENYCRNPRGEEGGPWCFTSNPEVRYEVCDIPQCSEVECMTCNGESYRGLMDHTESGKICQRWDHQTPHRHKFLPERYPDKGFDDNYCRNPDGQPRPWCYTLDPHTRWEYCAIKTCADNTMQDTDVPLETTECIQGQGEGYRGTVNTIWNGIPCQRWDSQYPHEHDMTPENFKCKDLRENYCRNPDGSESPWCFTTDPNIRVGYCSQIPNCDMSHGQDCYRGNGKNYMGNLSQTRSGLTCSMWDKNMEDLHRHIFWEPDASKLNENYCRNPDDDAHGPWCYTGNPLIPWDYCPISRCEGDTTPTIVNLDHPVISCAKTKQLRVVNGIPTRTNIGWMVSLRYRNKHICGGSLIKESWVLTARQCFPSRDLKDYEAWLGIHDVHGRGDEKCKQVLNVAQLVYGPEGSDLVLMKLARPAVLDDFVSTIDLPNYGCTIPEKTSCSVYGWGYTGLINYDGLLRVAHLYIMGNEKCSQHHRGKVTLNESEICAGAEKIGSGPCEGDYGGPLVCEQHKMRMVLGVIVPGRGCAIPNRPGIFVRVAYYAKWIHKIILTYKVPQS
bioavailabilities (in words) [1]: larger bioavailabilities
AUC (in words) ([1]; iv): larger AUC
CLtotal (total clearance) ([1]; iv): 6.0 ± 0.2 mL/min/kg
metabolic fates (in words) ([1]; iv): slower metabolic fates
plasma half-lives (in words) ([1]; iv): prolonged
t1/2 α (plasma half-life of rapid phase) ([1]; iv): 3.8 ± 0.5 min
t1/2 β (plasma half-life of slower phase) ([1]; iv): 24.9 ± 3.1 min
total clearance (in words) ([1]; iv): decreased
tumor cytotoxic activity (in words) (Meth A sarcoma): cytotoxic activities to Meth A cells in a dose-dependent manner
